Test results reported in patent publication US11993599B2, “Therapeutic compounds” (Genentech, Inc., priority 2021, dated 2024).

Sequences of proteins named here, by UniProt entry; tags and fusion partners are left off.
UniProt P51531, whole entry: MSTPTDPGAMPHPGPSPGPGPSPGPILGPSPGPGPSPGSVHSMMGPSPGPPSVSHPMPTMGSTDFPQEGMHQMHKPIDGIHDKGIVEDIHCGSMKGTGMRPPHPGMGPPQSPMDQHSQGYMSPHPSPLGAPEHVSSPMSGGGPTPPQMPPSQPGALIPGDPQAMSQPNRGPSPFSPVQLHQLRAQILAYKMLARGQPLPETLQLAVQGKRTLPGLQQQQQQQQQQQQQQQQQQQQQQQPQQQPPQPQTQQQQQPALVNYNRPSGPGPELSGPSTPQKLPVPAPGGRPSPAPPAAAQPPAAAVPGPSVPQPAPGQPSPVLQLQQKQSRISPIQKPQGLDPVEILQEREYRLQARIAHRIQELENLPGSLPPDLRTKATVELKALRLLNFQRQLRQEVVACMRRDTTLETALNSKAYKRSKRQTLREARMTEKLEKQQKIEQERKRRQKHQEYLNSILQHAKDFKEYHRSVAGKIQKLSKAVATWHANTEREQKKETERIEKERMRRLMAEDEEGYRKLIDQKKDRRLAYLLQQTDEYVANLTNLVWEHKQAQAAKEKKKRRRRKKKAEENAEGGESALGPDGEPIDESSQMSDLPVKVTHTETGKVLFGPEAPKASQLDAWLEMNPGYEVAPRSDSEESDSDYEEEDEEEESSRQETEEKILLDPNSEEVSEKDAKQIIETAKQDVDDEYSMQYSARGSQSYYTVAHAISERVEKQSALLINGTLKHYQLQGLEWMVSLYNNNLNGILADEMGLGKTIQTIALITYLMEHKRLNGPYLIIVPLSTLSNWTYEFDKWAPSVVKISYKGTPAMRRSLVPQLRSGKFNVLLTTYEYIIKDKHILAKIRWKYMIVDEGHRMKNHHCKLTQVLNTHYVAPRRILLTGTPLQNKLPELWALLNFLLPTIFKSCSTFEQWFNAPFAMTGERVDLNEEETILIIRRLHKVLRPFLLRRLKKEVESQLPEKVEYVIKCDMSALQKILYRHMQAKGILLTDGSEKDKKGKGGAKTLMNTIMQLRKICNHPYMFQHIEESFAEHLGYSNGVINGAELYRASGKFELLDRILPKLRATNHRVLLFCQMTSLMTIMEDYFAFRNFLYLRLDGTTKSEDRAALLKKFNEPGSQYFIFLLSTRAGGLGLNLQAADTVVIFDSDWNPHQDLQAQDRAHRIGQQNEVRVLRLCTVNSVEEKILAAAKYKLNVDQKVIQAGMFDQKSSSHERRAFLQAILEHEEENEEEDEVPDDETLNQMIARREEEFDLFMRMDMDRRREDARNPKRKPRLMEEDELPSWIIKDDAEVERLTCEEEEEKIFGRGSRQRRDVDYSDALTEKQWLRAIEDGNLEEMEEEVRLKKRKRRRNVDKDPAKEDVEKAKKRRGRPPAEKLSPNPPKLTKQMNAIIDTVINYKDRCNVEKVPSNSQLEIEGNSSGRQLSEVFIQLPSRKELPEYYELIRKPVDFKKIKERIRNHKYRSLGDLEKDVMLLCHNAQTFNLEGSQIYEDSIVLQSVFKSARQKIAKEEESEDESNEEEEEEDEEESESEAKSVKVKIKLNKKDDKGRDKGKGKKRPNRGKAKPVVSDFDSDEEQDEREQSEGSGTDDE
UniProt P51532, whole entry: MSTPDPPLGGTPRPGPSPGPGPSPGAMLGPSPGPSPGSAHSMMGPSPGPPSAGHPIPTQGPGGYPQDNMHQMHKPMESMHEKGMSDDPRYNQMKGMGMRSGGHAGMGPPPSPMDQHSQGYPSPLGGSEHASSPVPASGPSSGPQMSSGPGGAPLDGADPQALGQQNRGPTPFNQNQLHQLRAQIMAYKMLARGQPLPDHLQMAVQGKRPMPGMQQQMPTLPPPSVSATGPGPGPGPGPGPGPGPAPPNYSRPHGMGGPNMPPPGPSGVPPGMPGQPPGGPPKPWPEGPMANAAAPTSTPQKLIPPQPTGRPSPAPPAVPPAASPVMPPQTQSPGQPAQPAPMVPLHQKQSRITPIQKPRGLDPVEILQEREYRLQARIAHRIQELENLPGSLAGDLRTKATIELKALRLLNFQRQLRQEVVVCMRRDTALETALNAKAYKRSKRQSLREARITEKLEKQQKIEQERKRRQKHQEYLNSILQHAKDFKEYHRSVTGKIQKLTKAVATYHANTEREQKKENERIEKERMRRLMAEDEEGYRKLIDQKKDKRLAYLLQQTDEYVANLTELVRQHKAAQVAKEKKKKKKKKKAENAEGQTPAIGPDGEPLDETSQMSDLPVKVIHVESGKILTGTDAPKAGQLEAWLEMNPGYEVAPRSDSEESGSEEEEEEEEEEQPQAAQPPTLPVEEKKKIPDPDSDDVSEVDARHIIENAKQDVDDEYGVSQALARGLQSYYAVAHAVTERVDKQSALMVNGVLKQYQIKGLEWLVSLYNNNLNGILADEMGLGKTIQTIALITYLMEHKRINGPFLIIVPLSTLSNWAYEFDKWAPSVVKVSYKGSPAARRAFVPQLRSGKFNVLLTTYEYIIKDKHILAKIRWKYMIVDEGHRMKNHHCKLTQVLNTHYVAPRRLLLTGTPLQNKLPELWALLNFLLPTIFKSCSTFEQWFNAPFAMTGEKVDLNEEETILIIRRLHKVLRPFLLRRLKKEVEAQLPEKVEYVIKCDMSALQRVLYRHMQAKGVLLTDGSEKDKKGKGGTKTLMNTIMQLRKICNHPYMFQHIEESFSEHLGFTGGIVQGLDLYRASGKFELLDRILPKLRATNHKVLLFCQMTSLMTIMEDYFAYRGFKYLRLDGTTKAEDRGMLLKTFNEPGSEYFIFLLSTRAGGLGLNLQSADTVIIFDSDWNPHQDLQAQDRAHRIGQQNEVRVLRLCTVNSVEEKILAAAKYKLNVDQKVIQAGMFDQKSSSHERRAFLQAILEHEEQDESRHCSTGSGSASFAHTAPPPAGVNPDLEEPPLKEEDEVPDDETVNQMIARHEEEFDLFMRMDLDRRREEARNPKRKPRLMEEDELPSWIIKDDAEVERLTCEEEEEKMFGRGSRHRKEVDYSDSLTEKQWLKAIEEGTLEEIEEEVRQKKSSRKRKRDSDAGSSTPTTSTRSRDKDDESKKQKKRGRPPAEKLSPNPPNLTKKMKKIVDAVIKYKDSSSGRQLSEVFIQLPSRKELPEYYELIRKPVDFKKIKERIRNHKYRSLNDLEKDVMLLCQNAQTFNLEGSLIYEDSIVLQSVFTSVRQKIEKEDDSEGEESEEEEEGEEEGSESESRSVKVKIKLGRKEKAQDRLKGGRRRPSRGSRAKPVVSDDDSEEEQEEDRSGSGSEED

Columns and labels:
BRM = BRM (Homo sapiens, UniProt P51531); assay: Immunofluorescence assay for BRM degradation in SW1573 cells
Protocol: (§1) Example B-2: Immunofluorescence Assay for BRM and BRG1 Degraders
(§2) SW1573 cells were seeded at 3000 cells/well in 384 well plates. The next day, compounds were added using an Echo dispenser. After 20 hours of incubation with compound, cells were fixed with 4% formaldehyde then permeabilized with 0.2% Triton X-100 and blocked with 10% FCS. Fixed and permeabilized cells were treated overnight at 4° C. with either BRM primary antibody (Cell signaling Cat #11966) or BRG primary antibody (Abcam, ab 110641). Finally, cells were treated with fluorescently labeled secondary antibodies for 1 hr (Donkey anti-Rabbit IgG AF488, Life Technologies, A21206) and Hoechst nuclear stain (#H3569) was added for 30 minutes. Cells were washed with PBS in between each step and before imaging on an Opera Phenix microscope (Perkin Elmer). Harmony software (Perking Elmer) was used to quantify the mean nuclear signaling intensity of BRM or BRG signaling per cell in each well. Dose responses were determined from the concentration dependent response of mean nuclear signal intensity with data normalized to a known degrader control. Dose response curves were fit to a floating maximum to allow for calculation of the Dmax.
(§3) Note that, in Table 5, the “Compound Number” corresponds to that used in Table 1. […]

BRG1 = BRG1 (Homo sapiens, UniProt P51532); assay: Immunofluorescence assay for BRG1 degradation in SW1573 cells
Protocol: as §1, §2, §3

[1] = 20 hours incubation, normalized to a known degrader control

SMILES: Nc1nnc(-c2ccccc2O)cc1N1CC2CCC(C1)N2c1ccnc(C#CCN2CC[C@@H]3C[C@H]2C(O)C3O)c1 (stereo partly shown)
- BRM IF Degradation Sinf (%) (BRM; [1]): E (E indicates −30%-−70%)
- IC50 (BRM; read-out: BRM IF Degradation IC50, 20 hours incubation, immunofluorescence mean nuclear signal): 10 to 100 nM
- BRG1 IF Degradation Sinf (%) (BRG1; [1]): E (E indicates −30%-−70%)
- IC50 (BRG1; read-out: BRG1 IF Degradation IC50, 20 hours incubation, immunofluorescence mean nuclear signal): 10 to 100 nM
